# US9591855B2, “Diindol-3-ylmethanes as potent non-toxic antifouling compounds” (Hong Kong University of Science and Technology, priority 2014, dated 2017)
# Tested on: Balanus amphitrite cypris larvae
# Conditions: read-out: LC50 (concentration in which 50% of the test larvae population was killed), 48 h
# 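Further: larvae held in 24-well plates with compound in seawater, dark, 48 h, settled larvae (attached plus metamorphosed) and dead or missing larvae counted microscopically as percent of total per well.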
substance,measurement,value
arsindoline A [Compound 6],LC50,> 134 µM
